Measurements as given in ChEMBL document CHEMBL3102731, “Structure-activity relationship studies and biological characterization of human NAD(+)-dependent 15-hydroxyprostaglandin dehydrogenase inhibitors” (Bioorg Med Chem Lett, 2014).

Target: T1, 15-hydroxyprostaglandin dehydrogenase [NAD(+)] (Homo sapiens, UniProt P15428)
T1 sequence (P15428 whole entry): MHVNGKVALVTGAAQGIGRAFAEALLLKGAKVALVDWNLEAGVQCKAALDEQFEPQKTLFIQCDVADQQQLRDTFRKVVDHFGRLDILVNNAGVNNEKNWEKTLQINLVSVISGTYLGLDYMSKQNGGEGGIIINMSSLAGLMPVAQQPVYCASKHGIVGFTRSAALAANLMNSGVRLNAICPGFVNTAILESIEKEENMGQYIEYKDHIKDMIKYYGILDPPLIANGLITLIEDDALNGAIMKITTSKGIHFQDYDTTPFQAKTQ
Assay: Inhibition of PGDH (unknown origin)

SMILES: CC1(COc2ccc(CC3SC(=O)NC3=O)cc2)CCCCC1 (stereo unspecified) [CIGLITAZONE]
- IC50: 2700 nM
